Data on one compound can be found in ChEMBL document CHEMBL1128467, “Novel, potent, and selective 5-HT3 receptor antagonists based on the arylpiperazine skeleton: synthesis, structure, biological activity, and comparative molecular field analysis studies” (J Med Chem, 1995).

Amino acid sequences for entries named in this document (tags omitted). A change or cut given only in a name is not applied to a line headed by its entry.
UniProt P35563, whole entry: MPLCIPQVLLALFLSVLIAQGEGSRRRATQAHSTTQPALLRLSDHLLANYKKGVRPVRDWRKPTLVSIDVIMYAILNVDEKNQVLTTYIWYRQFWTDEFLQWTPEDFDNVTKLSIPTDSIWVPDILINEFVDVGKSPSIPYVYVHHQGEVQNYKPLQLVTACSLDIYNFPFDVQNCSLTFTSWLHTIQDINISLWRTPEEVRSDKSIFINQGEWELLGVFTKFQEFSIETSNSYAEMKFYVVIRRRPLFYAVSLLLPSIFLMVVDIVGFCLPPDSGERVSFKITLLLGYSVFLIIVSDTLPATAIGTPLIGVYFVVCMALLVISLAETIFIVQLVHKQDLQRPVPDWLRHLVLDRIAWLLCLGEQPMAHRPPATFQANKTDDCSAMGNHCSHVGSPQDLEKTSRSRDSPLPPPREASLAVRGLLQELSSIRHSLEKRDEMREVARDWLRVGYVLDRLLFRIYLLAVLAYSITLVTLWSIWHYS
UniProt Q9JJ16: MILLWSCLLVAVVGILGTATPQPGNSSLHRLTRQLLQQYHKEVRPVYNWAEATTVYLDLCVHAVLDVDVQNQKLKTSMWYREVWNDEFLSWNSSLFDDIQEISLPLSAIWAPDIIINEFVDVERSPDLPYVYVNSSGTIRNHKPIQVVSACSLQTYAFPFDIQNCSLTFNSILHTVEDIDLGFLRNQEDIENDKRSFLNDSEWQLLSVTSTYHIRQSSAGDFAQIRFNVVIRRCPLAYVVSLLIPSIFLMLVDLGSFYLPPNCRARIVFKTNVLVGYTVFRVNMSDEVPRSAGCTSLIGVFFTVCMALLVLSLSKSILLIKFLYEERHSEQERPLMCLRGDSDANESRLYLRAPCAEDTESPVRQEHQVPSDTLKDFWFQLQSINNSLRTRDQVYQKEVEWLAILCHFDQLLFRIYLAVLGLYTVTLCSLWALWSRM
UniProt P19327, whole entry: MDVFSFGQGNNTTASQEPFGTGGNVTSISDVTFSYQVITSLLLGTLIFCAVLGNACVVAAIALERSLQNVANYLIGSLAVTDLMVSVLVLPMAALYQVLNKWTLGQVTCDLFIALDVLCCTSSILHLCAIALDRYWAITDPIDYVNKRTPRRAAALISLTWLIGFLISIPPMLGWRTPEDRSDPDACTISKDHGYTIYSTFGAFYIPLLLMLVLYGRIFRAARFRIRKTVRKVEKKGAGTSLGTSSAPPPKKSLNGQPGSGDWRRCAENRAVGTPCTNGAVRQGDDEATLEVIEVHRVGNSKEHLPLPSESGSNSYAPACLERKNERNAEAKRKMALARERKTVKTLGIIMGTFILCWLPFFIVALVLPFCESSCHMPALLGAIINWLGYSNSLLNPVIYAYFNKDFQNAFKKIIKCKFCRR

For assay [1], the target named is Serotonin 3 (5-HT3) receptor (Rattus norvegicus, UniProt P35563+Q9JJ16). Put plainly: Binding affinity for 5-hydroxytryptamine 3 receptor from rat cortex using [3H]BRL-43694 as radioligand.
Assay [2] deals with 5-hydroxytryptamine receptor 1A (Rattus norvegicus, UniProt P19327). Put plainly: The compound was tested for their binding affinity towards 5-hydroxytryptamine 1A receptor from rat hippocampus using [3H]8-OH-DPAT as radioligand. In kind it is tissue-based.

For `NCCc1c[nH]c2ccc(O)cc12` [SEROTONIN], the inhibition constant Ki was found to be 66 nM in assay [1] and 2.1 nM in assay [2].
